According to ChEMBL document CHEMBL4765295, “Synthesis, pharmacological profile and 2D-QSAR studies of curcumin-amino acid conjugates as potential drug candidates” (Eur J Med Chem, 2020):

Tested on: MCF7
Assay: Antiproliferative activity against human MCF7 cells assessed as inhibition of cell growth after 72 hrs by MTT assay
Format: functional, cell-based
Conditions: MCF7, 72 h

For O=c1[nH]cc(F)c(=O)[nH]1 [FLUOROURACIL], the IC50 was 3.15 µM.
